Experimental data: patent US5889029A, “Use of cotinine in treating psychiatric disorders” (priority 1997, dated 1999)

By UniProt entry, the sequences of proteins in these tests, tags left out. Residues count along the entry.
UniProt P47747, whole entry: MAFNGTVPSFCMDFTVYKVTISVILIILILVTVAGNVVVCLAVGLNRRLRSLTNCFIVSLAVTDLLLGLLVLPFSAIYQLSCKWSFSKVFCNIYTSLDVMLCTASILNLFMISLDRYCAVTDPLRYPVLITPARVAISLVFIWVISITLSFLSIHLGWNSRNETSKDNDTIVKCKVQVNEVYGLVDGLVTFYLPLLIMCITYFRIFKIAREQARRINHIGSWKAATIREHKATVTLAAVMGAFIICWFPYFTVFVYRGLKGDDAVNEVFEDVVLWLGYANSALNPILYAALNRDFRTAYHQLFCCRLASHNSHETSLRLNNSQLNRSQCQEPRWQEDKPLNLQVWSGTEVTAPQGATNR
UniProt F6Q2H9, 1-422: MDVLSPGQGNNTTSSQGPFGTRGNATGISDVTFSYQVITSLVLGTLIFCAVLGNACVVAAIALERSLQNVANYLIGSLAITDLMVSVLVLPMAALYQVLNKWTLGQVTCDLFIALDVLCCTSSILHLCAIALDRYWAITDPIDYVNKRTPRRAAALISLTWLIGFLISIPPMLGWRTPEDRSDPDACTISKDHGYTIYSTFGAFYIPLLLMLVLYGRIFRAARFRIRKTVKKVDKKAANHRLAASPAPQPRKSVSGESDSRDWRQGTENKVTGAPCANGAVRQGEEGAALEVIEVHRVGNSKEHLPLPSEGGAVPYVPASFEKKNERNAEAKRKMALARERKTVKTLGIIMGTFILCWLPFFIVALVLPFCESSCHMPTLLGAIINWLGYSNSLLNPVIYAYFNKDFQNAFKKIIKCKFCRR
UniProt P18901, whole entry: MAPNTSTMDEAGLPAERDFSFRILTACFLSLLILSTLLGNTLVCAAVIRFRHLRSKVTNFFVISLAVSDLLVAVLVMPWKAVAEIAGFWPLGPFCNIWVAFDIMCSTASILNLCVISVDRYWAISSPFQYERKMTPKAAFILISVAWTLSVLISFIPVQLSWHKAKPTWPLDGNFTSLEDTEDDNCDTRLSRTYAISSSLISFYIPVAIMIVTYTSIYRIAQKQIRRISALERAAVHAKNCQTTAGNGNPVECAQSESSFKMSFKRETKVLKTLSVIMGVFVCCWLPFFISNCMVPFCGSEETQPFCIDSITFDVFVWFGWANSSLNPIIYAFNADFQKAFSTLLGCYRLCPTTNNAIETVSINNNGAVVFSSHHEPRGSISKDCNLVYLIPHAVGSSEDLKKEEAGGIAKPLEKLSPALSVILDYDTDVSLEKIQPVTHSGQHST

Legend:
[1] = target: T1, Histamine (H2) (Cavia porcellus, UniProt P47747); assay: Histamine (H2) Binding Assay; details: reference compound; Guinea pig striatal membranes; [3H]Tiotidine
T1 construct: Guinea pig striatal membranes; from tissue; host or cells: guinea pig striatal membranes

[2] = target: Serotonin (5HT1A) (Bos taurus, UniProt F6Q2H9); assay: Serotonin (5HT1A) Binding Assay
[3] = target: Dopamine (D1 Central) (Rattus norvegicus, UniProt P18901); assay: Dopamine (D1 Central) Binding Assay

CN/C(=N/CCSCc1nc[nH]c1C)NC#N [Cimetidine, reference compound]
Ki [1]: 650 nM

COc1ccc2[nH]cc(C3=CCNCC3)c2c1 [RU 24969]
Ki [2]: 10 nM

O=C(CCCN1CCC2(CC1)C(=O)NCN2c1ccccc1)c1ccc(F)cc1 [Spiperone, reference compound]
Ki [3]: 843 nM
